Measurements from patent US20130338152A1, “FLUOROPHENYL BICYCLIC HETEROARYL COMPOUNDS” (IRM LLC, priority 2011, published 2013).

Chains of the proteins cited; added tags and fusions are not shown. Residues count along the entry.
UniProt P29597, whole entry: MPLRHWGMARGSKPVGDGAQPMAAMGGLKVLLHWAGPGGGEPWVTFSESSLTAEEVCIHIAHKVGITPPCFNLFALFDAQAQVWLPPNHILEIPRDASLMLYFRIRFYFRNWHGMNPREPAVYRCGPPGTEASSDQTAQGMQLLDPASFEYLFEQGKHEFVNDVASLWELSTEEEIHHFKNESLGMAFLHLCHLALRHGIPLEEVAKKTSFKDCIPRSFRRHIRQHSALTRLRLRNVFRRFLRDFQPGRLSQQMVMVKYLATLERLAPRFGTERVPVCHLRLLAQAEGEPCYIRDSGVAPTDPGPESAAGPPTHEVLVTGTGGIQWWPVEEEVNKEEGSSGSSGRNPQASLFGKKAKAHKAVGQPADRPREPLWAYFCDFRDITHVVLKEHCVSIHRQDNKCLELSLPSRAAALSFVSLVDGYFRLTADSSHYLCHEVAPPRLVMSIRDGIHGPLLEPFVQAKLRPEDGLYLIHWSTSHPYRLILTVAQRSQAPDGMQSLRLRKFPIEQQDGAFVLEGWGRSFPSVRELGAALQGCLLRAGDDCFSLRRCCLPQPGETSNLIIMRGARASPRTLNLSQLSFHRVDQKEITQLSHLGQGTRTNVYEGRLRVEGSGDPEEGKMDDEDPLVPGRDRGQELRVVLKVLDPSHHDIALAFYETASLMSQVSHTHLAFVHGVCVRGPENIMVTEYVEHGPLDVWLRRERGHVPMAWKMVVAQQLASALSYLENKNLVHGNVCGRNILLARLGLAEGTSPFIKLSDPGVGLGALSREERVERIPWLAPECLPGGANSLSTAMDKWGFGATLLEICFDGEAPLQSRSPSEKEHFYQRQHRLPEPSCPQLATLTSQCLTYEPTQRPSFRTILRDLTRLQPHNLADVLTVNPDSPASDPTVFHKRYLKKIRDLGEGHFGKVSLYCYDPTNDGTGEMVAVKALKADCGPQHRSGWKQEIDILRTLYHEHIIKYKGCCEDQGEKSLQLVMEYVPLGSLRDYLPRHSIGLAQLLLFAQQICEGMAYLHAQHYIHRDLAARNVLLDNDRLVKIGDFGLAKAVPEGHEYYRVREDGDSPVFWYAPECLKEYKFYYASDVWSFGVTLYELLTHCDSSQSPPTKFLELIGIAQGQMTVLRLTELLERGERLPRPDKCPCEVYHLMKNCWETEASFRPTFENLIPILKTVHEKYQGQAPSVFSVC
UniProt P04626, 23-1255 limits assumed: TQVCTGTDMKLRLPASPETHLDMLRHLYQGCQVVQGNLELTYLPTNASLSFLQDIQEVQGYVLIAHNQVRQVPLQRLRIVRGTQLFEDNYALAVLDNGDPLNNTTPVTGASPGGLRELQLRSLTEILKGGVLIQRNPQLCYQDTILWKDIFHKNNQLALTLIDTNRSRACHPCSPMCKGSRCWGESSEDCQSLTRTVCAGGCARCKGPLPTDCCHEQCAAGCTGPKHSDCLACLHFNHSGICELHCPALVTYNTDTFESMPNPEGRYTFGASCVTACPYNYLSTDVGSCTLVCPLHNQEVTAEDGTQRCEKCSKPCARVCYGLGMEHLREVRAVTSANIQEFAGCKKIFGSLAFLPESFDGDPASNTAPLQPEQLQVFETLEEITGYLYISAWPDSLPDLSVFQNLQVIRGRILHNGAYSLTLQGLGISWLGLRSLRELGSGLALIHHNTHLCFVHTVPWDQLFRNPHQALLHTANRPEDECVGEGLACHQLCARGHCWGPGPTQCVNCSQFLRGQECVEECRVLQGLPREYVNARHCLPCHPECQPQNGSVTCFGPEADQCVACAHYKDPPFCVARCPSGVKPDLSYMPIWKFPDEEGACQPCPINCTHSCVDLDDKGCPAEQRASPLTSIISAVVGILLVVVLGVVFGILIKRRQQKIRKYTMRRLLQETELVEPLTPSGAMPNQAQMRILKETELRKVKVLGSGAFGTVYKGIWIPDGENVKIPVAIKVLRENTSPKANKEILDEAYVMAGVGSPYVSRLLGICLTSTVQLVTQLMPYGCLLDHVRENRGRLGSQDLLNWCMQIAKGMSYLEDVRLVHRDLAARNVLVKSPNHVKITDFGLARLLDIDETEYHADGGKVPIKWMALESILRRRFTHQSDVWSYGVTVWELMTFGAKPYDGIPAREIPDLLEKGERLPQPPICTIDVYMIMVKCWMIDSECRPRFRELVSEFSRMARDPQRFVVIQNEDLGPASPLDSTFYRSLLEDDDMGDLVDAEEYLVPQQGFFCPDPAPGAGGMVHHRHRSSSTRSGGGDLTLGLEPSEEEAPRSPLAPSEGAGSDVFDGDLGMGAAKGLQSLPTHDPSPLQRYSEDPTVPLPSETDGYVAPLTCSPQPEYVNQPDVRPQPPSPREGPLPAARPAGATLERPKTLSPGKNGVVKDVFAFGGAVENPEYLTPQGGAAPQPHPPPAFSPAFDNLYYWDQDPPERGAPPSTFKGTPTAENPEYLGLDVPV
UniProt P16234, 24-1089 limits assumed: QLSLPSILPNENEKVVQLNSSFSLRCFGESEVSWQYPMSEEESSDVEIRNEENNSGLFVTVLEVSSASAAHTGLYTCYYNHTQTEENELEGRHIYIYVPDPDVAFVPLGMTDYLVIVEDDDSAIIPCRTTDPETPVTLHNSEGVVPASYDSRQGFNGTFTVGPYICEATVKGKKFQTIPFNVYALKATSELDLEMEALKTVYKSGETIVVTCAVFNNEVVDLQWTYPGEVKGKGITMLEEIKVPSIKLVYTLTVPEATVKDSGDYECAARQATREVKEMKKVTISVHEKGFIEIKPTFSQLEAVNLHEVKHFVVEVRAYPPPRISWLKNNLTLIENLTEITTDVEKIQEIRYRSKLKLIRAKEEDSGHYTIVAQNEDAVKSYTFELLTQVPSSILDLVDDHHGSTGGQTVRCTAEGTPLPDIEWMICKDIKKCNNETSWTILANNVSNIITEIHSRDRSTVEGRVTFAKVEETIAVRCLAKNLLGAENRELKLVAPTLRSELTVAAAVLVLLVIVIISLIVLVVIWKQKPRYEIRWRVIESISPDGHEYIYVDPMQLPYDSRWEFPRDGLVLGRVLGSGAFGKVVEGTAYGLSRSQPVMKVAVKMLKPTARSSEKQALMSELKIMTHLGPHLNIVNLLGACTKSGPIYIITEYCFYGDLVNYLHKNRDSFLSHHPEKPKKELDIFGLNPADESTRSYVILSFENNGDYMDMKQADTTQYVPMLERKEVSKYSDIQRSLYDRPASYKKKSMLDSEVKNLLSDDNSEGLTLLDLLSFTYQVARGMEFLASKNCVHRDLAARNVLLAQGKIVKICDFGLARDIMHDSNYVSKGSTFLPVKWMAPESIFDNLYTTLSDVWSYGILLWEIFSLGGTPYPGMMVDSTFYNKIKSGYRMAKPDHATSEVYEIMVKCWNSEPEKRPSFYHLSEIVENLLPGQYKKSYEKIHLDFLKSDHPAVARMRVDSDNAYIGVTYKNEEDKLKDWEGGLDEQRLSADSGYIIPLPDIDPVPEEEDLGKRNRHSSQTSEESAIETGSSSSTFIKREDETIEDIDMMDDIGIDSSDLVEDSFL
UniProt O14965, whole entry: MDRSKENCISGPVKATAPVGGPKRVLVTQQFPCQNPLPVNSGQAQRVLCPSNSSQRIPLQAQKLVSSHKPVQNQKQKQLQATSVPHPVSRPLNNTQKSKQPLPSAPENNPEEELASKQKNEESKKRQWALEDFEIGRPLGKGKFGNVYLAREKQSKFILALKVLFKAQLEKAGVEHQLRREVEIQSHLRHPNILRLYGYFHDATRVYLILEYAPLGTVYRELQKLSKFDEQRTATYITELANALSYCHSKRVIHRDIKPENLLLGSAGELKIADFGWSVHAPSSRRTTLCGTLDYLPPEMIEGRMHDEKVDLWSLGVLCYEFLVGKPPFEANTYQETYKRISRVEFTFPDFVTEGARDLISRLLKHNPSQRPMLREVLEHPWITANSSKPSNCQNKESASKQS
UniProt P54764, 20-986 limits assumed: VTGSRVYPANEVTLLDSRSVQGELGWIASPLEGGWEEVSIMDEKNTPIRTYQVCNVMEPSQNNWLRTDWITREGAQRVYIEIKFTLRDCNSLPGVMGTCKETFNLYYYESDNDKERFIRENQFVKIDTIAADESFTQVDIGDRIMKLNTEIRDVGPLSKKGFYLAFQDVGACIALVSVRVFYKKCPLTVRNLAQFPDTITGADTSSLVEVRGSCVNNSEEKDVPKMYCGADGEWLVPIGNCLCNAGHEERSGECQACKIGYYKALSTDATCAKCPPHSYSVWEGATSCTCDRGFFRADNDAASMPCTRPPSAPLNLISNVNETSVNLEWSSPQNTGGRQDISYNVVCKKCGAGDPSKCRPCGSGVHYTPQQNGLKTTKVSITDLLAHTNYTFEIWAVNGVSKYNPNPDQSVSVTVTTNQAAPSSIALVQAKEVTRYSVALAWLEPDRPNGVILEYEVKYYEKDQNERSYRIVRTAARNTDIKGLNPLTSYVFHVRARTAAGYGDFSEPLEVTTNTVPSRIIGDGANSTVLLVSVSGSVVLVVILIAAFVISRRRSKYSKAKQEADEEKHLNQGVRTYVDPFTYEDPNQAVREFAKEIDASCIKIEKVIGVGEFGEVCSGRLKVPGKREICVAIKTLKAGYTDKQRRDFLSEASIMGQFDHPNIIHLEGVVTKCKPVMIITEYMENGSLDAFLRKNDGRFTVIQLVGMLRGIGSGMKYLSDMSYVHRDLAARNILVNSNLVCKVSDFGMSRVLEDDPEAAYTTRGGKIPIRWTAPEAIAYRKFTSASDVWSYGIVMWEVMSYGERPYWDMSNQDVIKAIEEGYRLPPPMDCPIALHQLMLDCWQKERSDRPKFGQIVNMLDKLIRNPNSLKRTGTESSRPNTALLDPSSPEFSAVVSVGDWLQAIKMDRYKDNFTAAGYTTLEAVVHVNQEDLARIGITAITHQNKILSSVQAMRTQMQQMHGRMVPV
UniProt P00519, whole entry T315I: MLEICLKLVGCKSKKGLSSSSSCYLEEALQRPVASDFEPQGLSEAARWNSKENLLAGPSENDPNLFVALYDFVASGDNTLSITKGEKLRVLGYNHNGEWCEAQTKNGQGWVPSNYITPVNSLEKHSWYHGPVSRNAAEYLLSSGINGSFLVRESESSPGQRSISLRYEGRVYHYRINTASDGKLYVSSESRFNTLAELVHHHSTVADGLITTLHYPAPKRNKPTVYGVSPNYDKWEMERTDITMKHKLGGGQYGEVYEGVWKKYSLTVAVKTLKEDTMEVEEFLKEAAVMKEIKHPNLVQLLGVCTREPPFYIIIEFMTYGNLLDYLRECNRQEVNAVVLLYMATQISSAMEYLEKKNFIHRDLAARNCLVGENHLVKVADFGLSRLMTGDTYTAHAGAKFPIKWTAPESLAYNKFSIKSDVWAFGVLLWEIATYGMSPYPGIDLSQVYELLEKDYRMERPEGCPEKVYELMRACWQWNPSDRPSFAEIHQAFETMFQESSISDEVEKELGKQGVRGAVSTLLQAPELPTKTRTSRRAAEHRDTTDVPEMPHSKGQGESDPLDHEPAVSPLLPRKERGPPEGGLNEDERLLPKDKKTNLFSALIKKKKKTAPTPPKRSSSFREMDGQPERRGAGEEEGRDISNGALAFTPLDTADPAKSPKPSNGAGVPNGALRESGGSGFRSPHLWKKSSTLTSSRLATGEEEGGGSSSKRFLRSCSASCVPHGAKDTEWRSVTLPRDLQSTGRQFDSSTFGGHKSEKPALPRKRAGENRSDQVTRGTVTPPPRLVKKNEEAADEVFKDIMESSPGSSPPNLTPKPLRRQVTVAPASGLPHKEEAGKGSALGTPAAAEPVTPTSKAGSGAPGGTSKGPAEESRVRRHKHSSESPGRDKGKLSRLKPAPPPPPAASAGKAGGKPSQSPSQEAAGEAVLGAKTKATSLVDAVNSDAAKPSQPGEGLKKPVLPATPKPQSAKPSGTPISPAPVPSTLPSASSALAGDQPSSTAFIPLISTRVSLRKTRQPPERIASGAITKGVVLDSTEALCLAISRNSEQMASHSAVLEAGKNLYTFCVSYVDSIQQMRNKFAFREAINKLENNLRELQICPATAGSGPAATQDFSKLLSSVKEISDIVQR
UniProt P49137, whole entry: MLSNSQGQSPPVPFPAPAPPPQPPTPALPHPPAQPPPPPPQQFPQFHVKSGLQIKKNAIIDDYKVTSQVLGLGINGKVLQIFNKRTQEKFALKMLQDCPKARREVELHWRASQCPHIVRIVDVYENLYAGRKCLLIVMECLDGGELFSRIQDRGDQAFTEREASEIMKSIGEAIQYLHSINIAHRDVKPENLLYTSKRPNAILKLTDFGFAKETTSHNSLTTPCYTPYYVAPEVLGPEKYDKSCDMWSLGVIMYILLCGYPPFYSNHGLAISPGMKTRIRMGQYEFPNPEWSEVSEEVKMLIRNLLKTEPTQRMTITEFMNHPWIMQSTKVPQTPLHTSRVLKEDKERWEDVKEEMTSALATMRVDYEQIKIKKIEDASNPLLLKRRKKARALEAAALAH

Experiments:
InsR = InsR (Homo sapiens, UniProt P06213); experiment: Enzymatic kinase assay (filter-binding/flashplate); format: biochemical; details: read-out: InsR IC50 values
IGF1R = IGF1R (Homo sapiens, UniProt P08069); experiment: Enzymatic kinase assay (filter-binding/flashplate); format: biochemical; details: read-out: IGF1R IC50 values
TYK2 = TYK2 (Homo sapiens, UniProt P29597); experiment: Enzymatic kinase assay; format: biochemical; details: read-out: TYK2 IC50 values
cMET = cMET (Homo sapiens, UniProt P08581); experiment: Enzymatic kinase assay; format: biochemical; details: read-out: cMET IC50 values
PKA = PKA (Homo sapiens, UniProt P17612); experiment: Enzymatic kinase assay; format: biochemical; details: read-out: PKA IC50 values
HER2 = HER2 (Homo sapiens, UniProt P04626); experiment: Enzymatic kinase assay; format: biochemical; details: read-out: HER2 IC50 values
FGFR-4 = FGFR-4 (Homo sapiens, UniProt P22455); experiment: Enzymatic kinase assay; format: biochemical; details: read-out: FGFR-4 IC50 values
GSK3beta = GSK3beta (Homo sapiens, UniProt P49841); experiment: Enzymatic kinase assay; format: biochemical; details: read-out: GSK3beta IC50 values
LCK = LCK (Homo sapiens, UniProt P06239); experiment: Enzymatic kinase assay; format: biochemical; details: read-out: LCK IC50 values
PDGFRa = PDGFRa (Homo sapiens, UniProt P16234); experiment: Enzymatic kinase assay; format: biochemical; details: read-out: PDGFRa IC50 values
COT1 = COT1 (Homo sapiens, UniProt P41279); experiment: Enzymatic kinase assay; format: biochemical; details: read-out: COT1 IC50 values
P38a = P38a (Homo sapiens, UniProt Q16539); experiment: Enzymatic kinase assay; format: biochemical; details: read-out: P38a IC50 values
Aurora A = Aurora A (Homo sapiens, UniProt O14965); experiment: Enzymatic kinase assay; format: biochemical; details: read-out: Aurora A IC50 values
ERK2 = ERK2 (Homo sapiens, UniProt P28482); experiment: Enzymatic kinase assay; format: biochemical; details: read-out: ERK2 IC50 values
CDK2A = CDK2A (Homo sapiens, UniProt P24941); experiment: Enzymatic kinase assay; format: biochemical; details: read-out: CDK2A IC50 values
JAK2 = JAK2 (Homo sapiens, UniProt O60674); experiment: Enzymatic kinase assay; format: biochemical; details: read-out: JAK2 IC50 values
cKIT = cKIT (Homo sapiens, UniProt P10721); experiment: Enzymatic kinase assay; format: biochemical; details: read-out: cKIT IC50 values
EphA4 = EphA4 (Homo sapiens, UniProt P54764); experiment: Enzymatic kinase assay; format: biochemical; details: read-out: EphA4 IC50 values
cABLT315 = cABLT315 (Homo sapiens, UniProt P00519, T315I); experiment: Enzymatic kinase assay; format: biochemical; details: read-out: cABLT315 IC50 values
KDR = KDR (Homo sapiens, UniProt P35968); experiment: Enzymatic kinase assay; format: biochemical; details: read-out: KDR IC50 values
MK2 = MK2 (Homo sapiens, UniProt P49137); experiment: Enzymatic kinase assay; format: biochemical; details: read-out: MK2 IC50 values
RET = RET (Homo sapiens, UniProt P07949); experiment: Enzymatic kinase assay; format: biochemical; details: read-out: RET IC50 values
hERG channels = hERG channels (Homo sapiens, UniProt Q12809)

Q: What does the source list for `COc1cc(Nc2cc(C)n[nH]2)nc(N2CCC[C@H]2c2cc(-c3ncccn3)no2)n1`?
A: IC50 (InsR): 21 nM; IC50 (IGF1R): 22 nM; IC50 (TYK2): 700 nM; IC50 (cMET): 70 nM; IC50 (PKA): 2100 nM; IC50 (HER2): > 10000 nM; IC50 (FGFR-4): > 10000 nM; IC50 (GSK3beta): 3600 nM; IC50 (LCK): 5300 nM; IC50 (PDGFRa): > 10000 nM; IC50 (COT1): > 10000 nM; IC50 (P38a): > 10000 nM; IC50 (Aurora A): 16 nM; IC50 (ERK2): > 10000 nM; IC50 (CDK2A): > 10000 nM; IC50 (JAK2): 900 nM; IC50 (cKIT): > 10000 nM; IC50 (EphA4): 420 nM; IC50 (cABLT315): 260 nM; IC50 (KDR): 4000 nM; IC50 (MK2): > 10000 nM; IC50 (RET): 1100 nM; IC50 (hERG channels): > 30000 nM
